Measurements reported in US11498904B2, “Substituted biaryl compounds as indoleamine 2,3-dioxygenase (IDO) inhibitors” (MERCK SHARP & DOHME CORP., priority 2017, dated 2022).

Chains of the proteins cited; added tags and fusions are not shown.
UniProt P14902, whole entry: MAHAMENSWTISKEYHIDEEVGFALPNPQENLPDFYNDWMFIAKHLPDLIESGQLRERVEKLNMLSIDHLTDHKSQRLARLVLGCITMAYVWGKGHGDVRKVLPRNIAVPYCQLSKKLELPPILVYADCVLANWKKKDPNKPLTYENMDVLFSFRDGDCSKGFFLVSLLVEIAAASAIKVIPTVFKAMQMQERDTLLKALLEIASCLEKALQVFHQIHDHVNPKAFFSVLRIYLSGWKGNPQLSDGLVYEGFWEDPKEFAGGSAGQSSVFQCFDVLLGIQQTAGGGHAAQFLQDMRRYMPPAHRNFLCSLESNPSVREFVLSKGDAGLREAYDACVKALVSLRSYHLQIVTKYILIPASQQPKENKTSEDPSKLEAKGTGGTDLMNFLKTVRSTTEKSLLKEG

Target: IDO1 (Homo sapiens, UniProt P14902)
Experiment: IDO1 Cellular Assay in HeLa Cells Stimulated with IFNγ
Type: cell-based
Conditions: HeLa cells stimulated with IFNγ 100 ng/mL, 300 uM L-tryptophan, about 48 hours, fluorescence readout; read-out: HeLa Cell Potency, IC50

Compared with `Cc1cc(C(F)(F)F)ncc1-c1ccc(C2(NC(=O)c3ccc(C#N)cc3)CCC2)cc1` [Example 11, 4-cyano-N-(1-(4-(4-methyl-6-(trifluoromethyl)pyridin-3-yl)phenyl)cyclobutyl)benzamide], `COc1cc(C(F)(F)F)ncc1-c1ccc(C2(NC(=O)c3ccc(C#N)cc3)CCC2)cc1` [Example 33, 4-cyano-N-(1-(4-(4-methoxy-6-(trifluoromethyl)pyridin-3-yl)phenyl)cyclobutyl)benzamide] is 3-fold higher in IC50: 0.003 µM for the first, 0.0089 µM for the second.

Going from `Cc1cc(C2CC2)ncc1-c1ccc(C2(NC(=O)c3ccc(C#N)cc3)CCC2)cc1` [Example 12, 4-cyano-N-(1-(4-(6-cyclopropyl-4-methylpyridin-3-yl)phenyl)cyclobutyl)benzamide] to `Cc1cc(C2CC2)ncc1-c1ccc(C2(NC(=O)c3ccc(C#N)cc3)CCC2)nc1` [Example 42, 4-Cyano-N-(1-(6′-cyclopropyl-4′-methyl-[3,3′-bipyridin]-6-yl)cyclobutyl)benzamide], the IC50 rises from 0.0021 µM to 0.0049 µM (2.3-fold). The first is the more potent here.

Compared with `N#Cc1ccc(C(=O)NC2(c3ccc(-c4ccc(C5CC5)nc4)cc3)CCC2)cc1` [Example 13, 4-cyano-N-(1-(4-(6-cyclopropylpyridin-3-yl)phenyl)cyclobutyl)benzamide], `N#Cc1ccc(C(=O)NC2(c3ccc(-c4cnc(C5CC5)cn4)cc3)CCC2)cc1` [Example 26, 4-cyano-N-(1-(4-(5-cyclopropylpyrazin-2-yl)phenyl)cyclobutyl)benzamide] is 3.1-fold higher in IC50: 0.0146 µM for the first, 0.0455 µM for the second.

First: N#Cc1ccc(C(=O)NC2(c3ccc(-c4ccc(C#N)nc4)cc3)CCC2)cc1 [Example 14, 4-cyano-N-(1-(4-(6-cyanopyridin-3-yl)phenyl)cyclobutyl)benzamide]
Second: N#Cc1ccc(C(=O)NC2(c3ccc(-c4ccc(CO)nc4)cc3)CCC2)cc1 [Example 24, 4-cyano-N-(1-(4-(6-(hydroxymethyl)pyridin-3-yl)phenyl)cyclobutyl)benzamide]
The IC50 of the first is 4.7-fold lower: 0.0677 µM for the first, 0.316 µM for the second. The first is the more potent here.

First: CC(O)c1ccc(-c2ccc(C3(NC(=O)c4ccc(C#N)cc4)CCC3)cc2)cn1 (centres unmarked) [Example 15, 4-cyano-N-(1-(4-(6-(1-hydroxyethyl)pyridin-3-yl)phenyl)cyclobutyl)benzamide]
Second: N#Cc1ccc(C(=O)NC2(c3ccc(-c4ccc(C(F)F)nc4)cc3)CCC2)cc1 [Example 21, 4-cyano-N-(1-(4-(6-(difluoromethyl)pyridin-3-yl)phenyl)cyclobutyl)benzamide]
The IC50 of the first is 11-fold higher: 0.319 µM for the first, 0.0302 µM for the second.

`Cc1cc(C#N)ncc1-c1ccc(C2(NC(=O)c3ccc(C#N)cc3)CCC2)cc1` [Example 16, 4-cyano-N-(1-(4-(6-cyano-4-methylpyridin-3-yl)phenyl)cyclobutyl)benzamide] and `Cc1cc(OC(F)F)ncc1-c1ccc(C2(NC(=O)c3ccc(C#N)cc3)CCC2)cc1` [Example 39, 4-cyano-N-(1-(4-(6-(difluoromethoxy)-4-methylpyridin-3-yl)phenyl)cyclobutyl)benzamide] are within 1.5-fold of each other in IC50: 0.0171 µM for the first, 0.0126 µM for the second.

First: Cc1noc(-c2ccc(-c3ccc(C4(NC(=O)c5ccc(C#N)cc5)CCC4)cc3)cn2)n1 [Example 17, 4-cyano-N-(1-(4-(6-(3-methyl-1,2,4-oxadiazol-5-yl)pyridin-3-yl)phenyl)cyclobutyl)benzamide]
Second: N#Cc1ccc(C(=O)NC2(c3ccc(-c4ccc(C(=O)O)nc4)cc3)CCC2)cc1 [Example 22, 5-(4-(1-(4-cyanobenzamido)cyclobutyl)phenyl)picolinic acid]
The IC50 of the first is lower: 0.153 µM for the first, ≥ 10 µM for the second.

Going from `COc1cc(CO)ncc1-c1ccc(C2(NC(=O)c3ccc(C#N)cc3)CCC2)cc1` [Example 18, 4-cyano-N-(1-(4-(6-(hydroxymethyl)-4-methoxypyridin-3-yl)phenyl)cyclobutyl)benzamide] to `COc1cc(C(F)(F)F)c(-c2ccc(C3(NC(=O)c4ccc(C#N)cc4)CCC3)cc2)cn1` [Example 29, 4-cyano-N-(1-(4-(6-methoxy-4-(trifluoromethyl)pyridin-3-yl)phenyl)cyclobutyl)benzamide], the IC50 falls from 0.197 µM to 0.0285 µM (6.9-fold). The second is the more potent here.

First: CS(=O)(=O)Cc1ccc(-c2ccc(C3(NC(=O)c4ccc(C#N)cc4)CCC3)cc2)cn1 [Example 19, 4-cyano-N-(1-(4-(6-((methylsulfonyl)methyl)pyridin-3-yl)phenyl)cyclobutyl)benzamide]
Second: N#Cc1ccc(C(=O)NC2(c3ccc(-c4ccc(C(F)(F)F)nc4)cc3)CCC2)cc1 [Example 20, 4-cyano-N-(1-(4-(6-(trifluoromethyl)pyridin-3-yl)phenyl)cyclobutyl)benzamide]
The IC50 of the first is higher: ≥ 10 µM for the first, 0.0185 µM for the second. The second is the more potent here.

First: N#Cc1ccc(C(=O)NC2(c3ccc(-c4ccc(C(O)C(F)(F)F)nc4)cc3)CCC2)cc1 (centres unmarked) [Example 23, 4-cyano-N-(1-(4-(6-(2,2,2-trifluoro-1-hydroxyethyl)pyridin-3-yl)phenyl)cyclobutyl)benzamide]
Second: N#Cc1ccc(C(=O)NC2(c3ccc(-c4cnc(C(F)(F)F)cc4CO)cc3)CCC2)cc1 [Example 35, 4-cyano-N-(1-(4-(4-(hydroxymethyl)-6-(trifluoromethyl)pyridin-3-yl)phenyl)cyclobutyl)benzamide]
The IC50 of the first is 14-fold higher: 0.116 µM for the first, 0.0082 µM for the second.

Compared with `N#Cc1ccc(C(=O)NC2(c3ccc(-c4ccc(C5CC5)nc4CO)cc3)CCC2)cc1` [Example 25, 4-cyano-N-(1-(4-(6-cyclopropyl-2-(hydroxymethyl)pyridin-3-yl)phenyl)cyclobutyl)benzamide], `COc1ccc(-c2ccc(C3(NC(=O)c4ccc(C#N)cc4)CCC3)cc2)c(C)n1` [Example 30, 4-cyano-N-(1-(4-(6-methoxy-2-methylpyridin-3-yl)phenyl)cyclobutyl)benzamide] is 2.2-fold lower in IC50: 0.0099 µM for the first, 0.0044 µM for the second.

Going from `N#Cc1ccc(C(=O)NC2(c3ccc(-c4cnc(OCCF)cn4)cc3)CCC2)cc1` [Example 27, 4-cyano-N-(1-(4-(5-(2-fluoroethoxy)pyrazin-2-yl)phenyl)cyclobutyl)benzamide] to `CC(C)c1ccc(-c2ccc(C3(NC(=O)c4ccc(C#N)cc4)CCC3)cc2)nn1` [Example 28, 4-cyano-N-(1-(4-(6-isopropylpyridazin-3-yl)phenyl)cyclobutyl)benzamide], the IC50 falls from 0.0952 µM to 0.0317 µM (3-fold). The second is the more potent here.

First: N#Cc1ccc(C(=O)NC2(c3ccc(-c4cnc(C(F)(F)F)cc4C(F)(F)F)cc3)CCC2)cc1 [Example 31, N-(1-(4-(4,6-bis(trifluoromethyl)pyridin-3-yl)phenyl)cyclobutyl)-4-cyanobenzamide]
Second: N#Cc1ccc(C(=O)NC2(c3ccc(-c4cnc(C(F)(F)F)cc4C#N)cc3)CCC2)cc1 [Example 37, 4-cyano-N-(1-(4-(4-cyano-6-(trifluoromethyl)pyridin-3-yl)phenyl)cyclobutyl)benzamide]
The IC50 of the first is 7.9-fold lower: 0.0151 µM for the first, 0.12 µM for the second.

First: COc1cc(C)c(-c2ccc(C3(NC(=O)c4ccc(C#N)cc4)CCC3)cc2)c(C)n1 [Example 36, 4-cyano-N-(1-(4-(6-methoxy-2,4-dimethylpyridin-3-yl)phenyl)cyclobutyl)benzamide]
Second: Cc1cc(OC(F)F)nc(C)c1-c1ccc(C2(NC(=O)c3ccc(C#N)cc3)CCC2)cc1 [Example 38, 4-cyano-N-(1-(4-(6-(difluoromethoxy)-2,4-dimethylpyridin-3-yl)phenyl)cyclobutyl)benzamide]
The IC50 of the first is 3.2-fold lower: 0.0019 µM for the first, 0.0061 µM for the second.

Compound `CC(C)Oc1cc(C(F)F)c(-c2ccc(C3(NC(=O)c4ccc(C#N)cc4)CCC3)cc2)cn1` [Example 41, 4-Cyano-N-(1-(4-(4-(difluoromethyl)-6-isopropoxypyridin-3-yl)phenyl)cyclobutyl)benzamide] has an IC50 of 0.0084 µM.
